In test [1] the test system is human monocyte-derived dendritic cells (moDCs). Description: DAMP screen: IL-1β secretion by LPS-activated human moDCs (ELISA). The class given is cell-based. The conditions noted are these: lipid screens at 82.5 or 41.3 μM + LPS 1 μg/mL. A general note: In an ELISA, binding on a coated surface is turned into a signal by an enzyme label.
Test [2] deals with non-human primate, monocyte-derived dendritic cells (moDC). Put plainly: IL-1beta secretion by non-human primate moDC. The class given is cell-based, rhesus macaques. The note with it: lipid 82.5 or 41.3 uM with R848, 2 days. As to the method:
Non-human primate moDC differentiation and hyperactivation. Whole blood from rhesus macaques was diluted with an equal volume of PBS and over-layed on Ficoll-Paque PLUS solution. Cells were spun at 1000 rcf for 30 minutes at room temperature with no brakes. Buffy coat layer was collected, washed twice using PBS, and counted. To isolate monocytes from the PBMC, human CD14 microbeads from Miltenyi were used according to manufacturer's recommendations. […] Cells were grown in R10 media consisting of RPMI, 10% FBS, penicillin, streptomycin, L-glutamine, sodium pyruvate, and beta-mercaptoethanol.
Differentiated moDC were collected, counted, and plated at 1×10^5 cells/well in a 96-well plate. Cells were treated with or without hyperactivating stimuli. Hyperactivation cultures were incubated for 2 days before assessing cell viability and IL-1beta secretion. Promega Cell Titer-Glo was used according to manufacturer's instructions to quantify ATP as a measure of cell viability. ELISA kits specific for non-human primate IL-1beta were purchased from Invitrogen, and assays were completed according to manufacturer's instructions.
Statistical Analyses. Rhesus macaque moDC were generated from four animals. Each activation condition was tested in triplicate and reported data points are the mean of the triplicates for an animal donor sample. […]

In the case of `CCCCCCCCCCCCCCCCCC(=O)O[C@H](CO)COP(=O)([O-])OCC[N+](C)(C)C` [2-18:0 LYSO PC, 2-stearoyl-sn-glycero-3-phosphocholine], the “IL-1β secretion (in words)” value in test [1] was “able to induce IL-1beta secretion”.

With `CCCCCCCC/C=C\CCCCCCCC(=O)O[C@H](CO)COP(=O)([O-])OCC[N+](C)(C)C` [2-18:1 Δ9 LYSO PC, 1-hydroxy-2-oleoyl-sn-glycero-3-phosphocholine], the “IL-1β secretion (in words)” value in test [1] is “did not induce IL-1beta secretion”.

In the case of `CCCCCCCCCC(=O)OC[C@@H](O)COP(=O)([O-])OCC[N+](C)(C)C` [10:0 LYSO PC], in test [1], the “IL-1β secretion (in words)” value is reported as “just outside the range of IL-1β secretion activity”.

With `CCCCCCCCCCCC(=O)OC[C@@H](O)COP(=O)([O-])OCC[N+](C)(C)C` [12:0 LYSO PC], in test [1], the “IL-1β secretion (in words)” value was “smallest acyl chain lipid to stimulate IL-1β secretion”.

Consider `CCCCCC/C=C\CCCCCCCCC(=O)OC[C@@H](O)COP(=O)([O-])OCC[N+](C)(C)C` [17:1 Δ^10 LYSO PC, 1-(10Z-heptadecenoyl)-2-hydroxy-sn-glycero-3-phosphocholine], for which the “IL-1β secretion (in words)” value in test [1] is reported as “did not induce IL-1beta secretion”.

Take `CCCCCCCCCCCCCCCCCCC(=O)OC[C@@H](O)COP(=O)([O-])OCC[N+](C)(C)C` [19:0 LYSO PC, 1-nonadecanoyl-2-hydroxy-sn-glycero-3-phosphocholine]: the “IL-1β secretion (in words)” value in test [1] is listed as “robust induction of IL-1β secretion”.

Regarding `CCCCCCCCCCCCCCCCCCCCCC(=O)OC[C@@H](O)COP(=O)([O-])OCC[N+](C)(C)C` [22:0 LYSO PC, 1-behenoyl-2-hydroxy-sn-glycero-3-phosphocholine], in test [2], the “IL-1beta detection in supernatant (lipid concentrations)” value is “detectable IL-1beta at 82.5 uM and 41.3 uM”. Besides, the “IL-1β secretion (in words)” value in test [1] is given as “robust induction of IL-1β secretion”.

Regarding `CCCCCCCCCCCCCCCCCCCCCCCC(=O)OC[C@@H](O)COP(=O)([O-])OCC[N+](C)(C)C` [24:0 LYSO PC, 1-lignoceroyl-2-hydroxy-sn-glycero-3-phosphocholine], in test [1], the “IL-1β secretion (in words)” value is on record as “just outside the range of IL-1β secretion activity”.

With `CCCCCCCCCCCCCCCC(=O)OC[C@H](COP(=O)([O-])OCC[N+](C)(C)C)OC(=O)CCCCCCCC(=O)O` [PAzePC, 1-palmitoyl-2-azelaoyl-sn-glycero-3-phosphocholine, reference compound], the “IL-1β secretion (in words)” value in test [1] is recorded as “promoted IL-1β secretion”.

Regarding `CCCCCCCCCCCCCCCC(=O)OC[C@H](COP(=O)([O-])OCC[N+](C)(C)C)OC(=O)CCCC(=O)O` [PGPC, 1-palmitoyl-2-glutaryl-sn-glycero-3-phosphocholine, reference compound], the “IL-1beta detection in supernatant (lipid concentrations)” value in test [2] is “only detectable at 82.5 uM”.

For the origin of these results see US20240197869A1, “HYPERACTIVATORS OF MAMMALIAN DENDRITIC CELLS” (Corner Therapeutics, Inc., priority 2021, published 2024).
